Assay results from US20250243203A1, “NICOTINAMIDE- AND BENZAMIDE-BASED COMPOUNDS, CONJUGATES, AND COMPOSITIONS AS INHIBITORS OF TRANSLATIONAL- AND TRANSCRIPTIONAL-RELATED KINASES” (PURDUE RESEARCH FOUNDATION, priority 2022, published 2025).

The chains behind the UniProt entries cited, without tags or fusion partners. Residues count along the entry.
UniProt Q9HBH9, whole entry: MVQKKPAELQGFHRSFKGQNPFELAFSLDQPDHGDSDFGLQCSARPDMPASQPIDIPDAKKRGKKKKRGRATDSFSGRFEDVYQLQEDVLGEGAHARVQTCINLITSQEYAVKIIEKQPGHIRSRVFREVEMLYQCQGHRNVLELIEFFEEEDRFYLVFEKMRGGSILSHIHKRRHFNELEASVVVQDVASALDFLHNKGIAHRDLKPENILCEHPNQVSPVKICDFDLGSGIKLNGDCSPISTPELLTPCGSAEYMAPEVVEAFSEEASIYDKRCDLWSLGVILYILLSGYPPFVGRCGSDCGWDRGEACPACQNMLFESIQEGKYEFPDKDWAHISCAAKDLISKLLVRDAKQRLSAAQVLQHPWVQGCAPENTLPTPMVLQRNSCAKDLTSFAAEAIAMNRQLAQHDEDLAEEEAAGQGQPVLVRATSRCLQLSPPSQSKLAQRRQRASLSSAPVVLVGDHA
UniProt Q12866, 21-999 limits assumed: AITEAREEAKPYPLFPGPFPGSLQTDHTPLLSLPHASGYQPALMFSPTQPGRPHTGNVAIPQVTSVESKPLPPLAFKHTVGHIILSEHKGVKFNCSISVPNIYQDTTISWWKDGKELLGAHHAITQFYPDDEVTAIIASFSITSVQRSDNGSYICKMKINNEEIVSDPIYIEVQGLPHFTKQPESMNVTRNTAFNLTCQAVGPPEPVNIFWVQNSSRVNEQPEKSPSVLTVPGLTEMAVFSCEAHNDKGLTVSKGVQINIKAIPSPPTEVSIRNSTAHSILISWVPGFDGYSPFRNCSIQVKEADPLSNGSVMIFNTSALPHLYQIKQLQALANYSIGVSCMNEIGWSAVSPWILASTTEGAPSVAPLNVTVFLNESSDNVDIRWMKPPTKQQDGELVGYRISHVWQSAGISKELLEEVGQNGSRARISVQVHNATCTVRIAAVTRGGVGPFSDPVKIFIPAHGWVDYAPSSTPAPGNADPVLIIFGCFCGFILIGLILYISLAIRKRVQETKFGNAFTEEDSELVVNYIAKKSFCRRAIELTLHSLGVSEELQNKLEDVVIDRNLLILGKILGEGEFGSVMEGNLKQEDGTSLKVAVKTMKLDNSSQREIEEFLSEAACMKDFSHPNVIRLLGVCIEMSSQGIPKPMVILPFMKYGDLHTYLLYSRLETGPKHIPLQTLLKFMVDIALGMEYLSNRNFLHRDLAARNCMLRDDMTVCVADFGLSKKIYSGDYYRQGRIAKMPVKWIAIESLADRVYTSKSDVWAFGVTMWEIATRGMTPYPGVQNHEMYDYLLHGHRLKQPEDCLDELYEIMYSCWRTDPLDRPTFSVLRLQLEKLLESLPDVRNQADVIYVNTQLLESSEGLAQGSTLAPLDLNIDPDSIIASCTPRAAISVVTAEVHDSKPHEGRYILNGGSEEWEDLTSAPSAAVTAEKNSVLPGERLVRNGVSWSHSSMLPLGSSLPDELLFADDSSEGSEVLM
UniProt P30530, 26-894 limits assumed: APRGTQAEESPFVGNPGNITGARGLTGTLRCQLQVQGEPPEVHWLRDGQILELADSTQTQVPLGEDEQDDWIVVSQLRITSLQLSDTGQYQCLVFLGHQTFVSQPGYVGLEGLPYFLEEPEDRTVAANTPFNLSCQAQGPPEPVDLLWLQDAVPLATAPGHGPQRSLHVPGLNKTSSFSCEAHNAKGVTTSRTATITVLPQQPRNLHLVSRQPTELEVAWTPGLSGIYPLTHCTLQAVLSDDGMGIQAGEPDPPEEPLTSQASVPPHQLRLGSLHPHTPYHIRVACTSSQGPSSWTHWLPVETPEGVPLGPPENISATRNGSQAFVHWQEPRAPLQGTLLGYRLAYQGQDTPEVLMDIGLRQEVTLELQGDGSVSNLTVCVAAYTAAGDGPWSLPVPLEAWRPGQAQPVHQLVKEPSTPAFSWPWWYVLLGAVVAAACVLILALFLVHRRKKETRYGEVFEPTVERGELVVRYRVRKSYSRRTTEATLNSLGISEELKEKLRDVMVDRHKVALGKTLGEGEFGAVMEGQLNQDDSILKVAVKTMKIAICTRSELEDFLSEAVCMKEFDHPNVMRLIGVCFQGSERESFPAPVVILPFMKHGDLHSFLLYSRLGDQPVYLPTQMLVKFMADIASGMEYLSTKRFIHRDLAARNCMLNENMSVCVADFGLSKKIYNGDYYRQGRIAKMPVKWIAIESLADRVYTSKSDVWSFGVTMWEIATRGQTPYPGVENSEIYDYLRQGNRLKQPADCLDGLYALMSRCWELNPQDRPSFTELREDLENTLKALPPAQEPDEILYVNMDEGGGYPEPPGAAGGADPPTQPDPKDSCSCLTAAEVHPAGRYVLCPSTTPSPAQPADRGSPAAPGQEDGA

What was measured:
MNK2 [1] = target: T1, MNK2 (Homo sapiens, UniProt Q9HBH9); settings: read-out: MNK2 IC50; [ATP]=100 μM; cited from earlier work
[2] = target: MER Proto-Oncogene tyrosine kinase (MERTK) (Homo sapiens, UniProt Q12866); assay: KINOMEscan competition binding assay (Eurofins DiscoverX), MERTK
[3] = target: AXL receptor tyrosine kinase (AXL) (Homo sapiens, UniProt P30530); assay: KINOMEscan competition binding assay (Eurofins DiscoverX), AXL
MNK2 [4] = target: T1, MNK2; assay: MNK2 inhibition, in vitro studies at Reaction Biology Corporation; settings: 50 nM compound, 10 uM ATP

Structure (SMILES): CN1CCN(Cc2ccc(NC(=O)c3cncc(C#Cc4cnc5cccnn45)c3)cc2C(F)(F)F)CC1
- IC50 (MNK2 [1]): 9 nM
- MERTK targeting [2]: not targeted
- AXL targeting [3]: not targeted
- inhibition of MNK2 (MNK2 [4]): 89%
